Assay results taken from PubChem BioAssay AID782 (Emory University Molecular Libraries Screening Center, 2007).
This is a selection; strong and weak results do not stand in their true shares. Some results for these compounds are left out of this collection, so the calls shown say nothing about other tests. Active and inactive are the calls of the source.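 Rule for the calls: active = inhibition above about 30% (limit read from the data); inactive = the rest.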

Chains of the proteins cited; added tags and fusions are not shown.
UniProt P63073, whole entry, looked up: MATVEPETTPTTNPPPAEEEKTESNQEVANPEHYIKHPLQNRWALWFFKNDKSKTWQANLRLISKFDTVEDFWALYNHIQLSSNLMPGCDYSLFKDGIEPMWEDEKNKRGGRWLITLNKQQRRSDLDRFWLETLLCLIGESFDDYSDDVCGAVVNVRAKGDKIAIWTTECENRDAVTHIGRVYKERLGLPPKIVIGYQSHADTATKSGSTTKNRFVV
UniProt Q04637, whole entry, looked up: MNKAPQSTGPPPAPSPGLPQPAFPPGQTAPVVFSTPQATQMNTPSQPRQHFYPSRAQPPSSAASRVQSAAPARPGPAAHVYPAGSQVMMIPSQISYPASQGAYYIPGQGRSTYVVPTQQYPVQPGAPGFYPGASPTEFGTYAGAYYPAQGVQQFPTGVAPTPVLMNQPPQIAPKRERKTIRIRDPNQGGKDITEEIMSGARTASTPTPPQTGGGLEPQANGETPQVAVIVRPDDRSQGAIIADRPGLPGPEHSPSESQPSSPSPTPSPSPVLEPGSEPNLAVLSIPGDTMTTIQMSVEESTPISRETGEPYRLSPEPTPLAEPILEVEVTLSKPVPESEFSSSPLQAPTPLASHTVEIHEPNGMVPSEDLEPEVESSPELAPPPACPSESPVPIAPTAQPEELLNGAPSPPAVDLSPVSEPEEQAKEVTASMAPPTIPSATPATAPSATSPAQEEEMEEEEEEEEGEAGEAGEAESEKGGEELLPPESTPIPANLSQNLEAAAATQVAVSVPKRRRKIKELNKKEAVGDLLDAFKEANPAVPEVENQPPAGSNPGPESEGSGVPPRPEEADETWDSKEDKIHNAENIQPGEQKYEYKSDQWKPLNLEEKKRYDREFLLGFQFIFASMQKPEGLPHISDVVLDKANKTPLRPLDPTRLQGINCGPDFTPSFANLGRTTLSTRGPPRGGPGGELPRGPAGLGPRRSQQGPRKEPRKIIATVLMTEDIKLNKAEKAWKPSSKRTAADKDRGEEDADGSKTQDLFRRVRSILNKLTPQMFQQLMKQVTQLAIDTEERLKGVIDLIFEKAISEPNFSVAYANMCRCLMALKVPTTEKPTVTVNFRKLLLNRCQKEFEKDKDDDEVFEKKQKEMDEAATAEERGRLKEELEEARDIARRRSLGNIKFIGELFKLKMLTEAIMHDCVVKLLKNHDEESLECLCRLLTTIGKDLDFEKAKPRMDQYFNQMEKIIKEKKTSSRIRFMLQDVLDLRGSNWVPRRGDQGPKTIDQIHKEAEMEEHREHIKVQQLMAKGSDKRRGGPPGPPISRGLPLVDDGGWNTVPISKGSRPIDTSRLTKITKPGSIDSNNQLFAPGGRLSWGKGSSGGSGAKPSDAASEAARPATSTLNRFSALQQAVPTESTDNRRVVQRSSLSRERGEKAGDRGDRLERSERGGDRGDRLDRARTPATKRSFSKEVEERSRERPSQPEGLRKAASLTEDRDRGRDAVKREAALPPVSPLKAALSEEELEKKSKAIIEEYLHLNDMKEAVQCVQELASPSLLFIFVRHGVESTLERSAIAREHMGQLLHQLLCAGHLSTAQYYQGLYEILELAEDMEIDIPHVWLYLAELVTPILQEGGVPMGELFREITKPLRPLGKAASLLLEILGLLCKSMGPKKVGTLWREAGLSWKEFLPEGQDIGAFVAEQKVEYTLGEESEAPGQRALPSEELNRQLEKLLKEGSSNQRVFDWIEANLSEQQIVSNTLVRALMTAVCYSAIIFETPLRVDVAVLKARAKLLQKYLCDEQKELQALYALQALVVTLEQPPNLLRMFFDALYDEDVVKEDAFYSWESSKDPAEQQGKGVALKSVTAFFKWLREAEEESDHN

These compounds were tested against Eukaryotic translation initiation factor 4E (Mus musculus) + Eukaryotic translation initiation factor 4 gamma 1 (Homo sapiens) (UniProt P63073+Q04637) (assay: blockers of eIF4G binding by eIF4E – biochemical, uHTS, TR-FRET, eIF4GI fragment, primary screen (AID 782;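 note: 0% = full FRET control wells and 100% = background wells lacking eIF4GI fragment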)). Details: TR-FRET eIF4E-eIF4GI(517-606) binding, 2 h; at 21.7 µM; stronger effect = higher value.
With `COc1cccc(C(=O)NCC2(N3CCCCC3)CCCCC2)c1` the inhibition was inactive: 2.82%.
In the case of `COc1ccc(Br)c(C(=O)NCC2(N3CCCCC3)CCCCC2)c1`, the inhibition is reported as inactive: -0.51%.
In the case of `CN(C)c1cccc(C(=O)NCC2(N(C)C)CCCCC2)c1`, the inhibition is reported as inactive: -1.07%.
`O=C(OC1CN2CCC1CC2)C(CO)(c1ccccc1)c1ccccc1` (stereo unspecified) was tested, and the inhibition was inactive: -2.72%.
With `CC(C)N1C(=O)CC2(CCN(CCOC(=O)C(O)(c3ccccc3)c3ccccc3)CC2)C1=O` the inhibition was inactive: 0.48%.
For `CCN(CC)CC(C)C(C)OC(=O)C(O)(c1ccccc1)c1ccccc1` (stereo unspecified), the inhibition was inactive: 1.62%.
`O=C(NCC1(N2CCCCC2)CCCCC1)c1cc([N+](=O)[O-])ccc1Cl` was tested, and the inhibition was inactive: 1.7%.
With `C=CCN1CCN(CCOC(=O)C(O)(c2ccccc2)c2ccccc2)CC1` the inhibition was inactive: 3.8%.
With `CCN1CCCC(OC(=O)C2(O)c3ccccc3C=Cc3ccccc32)C1` (stereo unspecified) the inhibition was inactive: -2.79%.
For `CN(C)C1CCCC1OC(=O)C(O)(c1ccccc1)c1ccccc1` (stereo unspecified), the inhibition was inactive: -0.36%.
`Cc1ccccc1C(=O)NCC1(N2CCCCC2)CCCCC1` was tested, and the inhibition was inactive: -2.21%.
